{"sequences": {"note": "Chains of the proteins cited; added tags and fusions are not shown.", "UniProt P35372, whole entry": "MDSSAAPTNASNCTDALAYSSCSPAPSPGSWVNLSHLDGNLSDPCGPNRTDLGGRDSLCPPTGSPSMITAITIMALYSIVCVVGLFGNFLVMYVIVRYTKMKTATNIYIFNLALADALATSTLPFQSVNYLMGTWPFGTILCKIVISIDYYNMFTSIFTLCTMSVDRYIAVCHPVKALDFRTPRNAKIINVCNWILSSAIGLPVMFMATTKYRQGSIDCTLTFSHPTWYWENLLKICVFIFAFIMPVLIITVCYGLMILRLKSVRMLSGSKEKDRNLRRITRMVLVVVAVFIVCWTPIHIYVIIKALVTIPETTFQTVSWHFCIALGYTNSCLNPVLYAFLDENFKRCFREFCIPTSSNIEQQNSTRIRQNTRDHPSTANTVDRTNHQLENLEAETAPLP", "UniProt P41145, whole entry": "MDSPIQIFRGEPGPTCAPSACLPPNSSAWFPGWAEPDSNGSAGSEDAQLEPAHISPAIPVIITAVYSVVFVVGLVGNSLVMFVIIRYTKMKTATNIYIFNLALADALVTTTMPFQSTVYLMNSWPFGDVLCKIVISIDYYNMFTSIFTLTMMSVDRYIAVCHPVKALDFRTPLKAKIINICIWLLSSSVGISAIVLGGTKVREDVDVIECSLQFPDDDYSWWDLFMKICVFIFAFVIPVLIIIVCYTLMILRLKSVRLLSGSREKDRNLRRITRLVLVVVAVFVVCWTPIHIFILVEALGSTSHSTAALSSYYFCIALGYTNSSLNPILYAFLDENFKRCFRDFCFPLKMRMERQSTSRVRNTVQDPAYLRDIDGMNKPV"}, "source": "patent US20240279232A1", "about": "“USE OF SUBSTITUTED 5-(4-METHYL-6-PHENYL-4H-BENZO[F]IMIDAZO[1,5-A][1,4] DIAZEPIN-3-YL)-1,2,4-OXADIAZOLES IN THE TREATMENT OF INFLAMMATORY CONDITIONS” (priority 2021, published 2024)", "key": {"MOR (μ opioid receptor)": {"biological_target": "MOR (μ opioid receptor) (Homo sapiens, UniProt P35372)", "assay": "MOR radioligand binding ([3H]-DAMGO, HEK293 cell homogenates)", "conditions": "Percent inhibition at 10,000 nM", "protocol": "(§1) Radioligand binding assays. Detailed protocols for the primary and secondary radioligand binding assays can be found in the National Institute of Mental Health's Psychoactive Drug Screening Program (NIMH PDSP) Assay Protocol Book (Roth, 2018). Briefly, primary and secondary radioligand binding assays are carried out in a final of volume of 125 μL per well in appropriate binding buffer. The radioactive ligand concentration is close to the Kd ([^3H]-U69593 0.83 nM, [^3H]-DAMGO 1.20 nM, and [^3H]-DADLE 2.69 nM). Total binding and nonspecific binding are determined in the absence and presence of 10 μM of appropriate reference compound (Naltrindole DOR, Salvinorin A KOR and DAMGO MOR). […] Scintillation cocktail is then melted onto the microwave-dried filters on a hot plate and radioactivity counted in a Microbeta counter. The data (n=6) were analyzed by nonlinear regression.\n(§2) Ligand affinities were determined for KOR (κ opioid receptor), DOR (δ opioid receptor), and MOR (μ opioid receptor) using radioligand binding assays at a screening concentration of 10,000 nM. […] Gamma aminobutyric acid type A receptor (GABAAR) binding was determined with rat brain homogenate and ^3H-flunitrazepam. […]\n(§3) Psychoactive Drug Screening Program. […] Total binding and nonspecific binding are determined in the absence and presence of 10 μM of appropriate reference compound, respectively. […]"}, "DOR (δ opioid receptor)": {"biological_target": "DOR (δ opioid receptor) (Homo sapiens, UniProt P41143)", "assay": "DOR radioligand binding ([3H]-DADLE, HEK293 cell homogenates)", "conditions": "Percent inhibition at 10,000 nM", "protocol": "as §1, §2, §3"}, "[1]": {"tested_on": "BZR (benzodiazepine site of GABAAR)", "assay": "GABAAR/BZR binding, rat brain homogenate with 3H-flunitrazepam", "protocol": "Ligand affinities were determined for KOR (κ opioid receptor), DOR (δ opioid receptor), and MOR (μ opioid receptor) using radioligand binding assays at a screening concentration of 10,000 nM. For these assays, cell homogenates from HEK293 cells that overexpressed KOR, MOR, and DOR were used in combination with [^3H]-U69593, [^3H]-DAMGO, and [^3H]-DADLE, respectively Compounds that exceeded more than 50% radioligand displacement were investigated further in concentration-dependent experiments to determine Ki values. Gamma aminobutyric acid type A receptor (GABAAR) binding was determined with rat brain homogenate and ^3H-flunitrazepam. Flunitrazepam binds GABAAR subtypes that consists of two α and two β subunits and one γ or δ subunit. Strong affinities to α1-3,5,6β1-3γ1-y/δ GABAARS have been reported for flunitrazepam. The […] GABAAR subtype expression in the brain includes 43% α1β2γ2, 15% α2β3γ2+8% α2βγ1, 10% α3β3γ2, 6% α4βγ/δ, 4% α5β3γ2, and 4% α6β2γ2/δ. […]\nPsychoactive Drug Screening Program. […] Total binding and nonspecific binding are determined in the absence and presence of 10 μM of appropriate reference compound, respectively. […] Scintillation cocktail is then melted onto the microwave-dried filters on a hot plate and radioactivity counted in a Microbeta counter. The data (n=6) were analyzed by nonlinear regression."}, "KOR (κ opioid receptor)": {"biological_target": "KOR (κ opioid receptor) (Homo sapiens, UniProt P41145)", "assay": "KOR radioligand binding ([3H]-U69593, HEK293 cell homogenates)", "conditions": "Percent inhibition at 10,000 nM", "protocol": "as §1, §2, §3"}}, "data": [{"smiles": "C#Cc1ccc2c(c1)C(c1ccccc1F)=NCc1c(C(=O)OCc3ccccc3)ncn1-2", "values": [{"measurement": "MOR %", "setting": "MOR (μ opioid receptor)", "value": 0, "unit": "%"}, {"measurement": "DOR %", "setting": "DOR (δ opioid receptor)", "value": 16, "unit": "%"}, {"measurement": "BZR %", "setting": "[1]; Percent inhibition at 10,000 nM", "value": 98, "unit": "%"}, {"measurement": "Ki", "setting": "[1]; read-out: BZR (Ki)", "value": 21, "unit": "nM"}, {"measurement": "KOR %", "setting": "KOR (κ opioid receptor)", "value": 84, "unit": "%"}]}]}
